The chains behind the UniProt entries cited, without tags or fusion partners. Residues count along the entry.
UniProt P04792, 79-176: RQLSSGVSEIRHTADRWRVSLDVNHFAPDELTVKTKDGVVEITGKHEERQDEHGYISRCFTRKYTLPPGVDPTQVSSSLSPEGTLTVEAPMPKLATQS

According to publication PMC7968374 (Bioorganic & medicinal chemistry, 2021):

The molecules below were run against Hsp27c (Hsp27 core domain, residues 79–176) (Homo sapiens, UniProt P04792). Details: not given.

| binding to Hsp27c by HSQC NMR (in words) | Structure (SMILES) | HSQC Affinity |
| --- | --- | --- |
| neither compound 1 nor 2 bound | Nc1cccc(-c2cccs2)c1 [Compound 1, 3-(thiophen-2-yl)aniline] |  |
| neither compound 1 nor 2 bound | O=C(O)c1csc(-c2cccc(Cl)c2Cl)n1 [Compound 2, 2-(2,3-dichlorophenyl)thiazole-4-carboxylic acid] |  |
| did not bind | O=C(O)CCS/C=C/c1ccccc1 [Compound 3a, (E)-3-(styrylthio)propanoic acid] |  |
| weakly bound | O=C(O)CCS/C=C\c1ccccc1 [Compound 3b] |  |
|  | O=[N+]([O-])c1ccc(Oc2cccc(F)c2)c([N+](=O)[O-])c1 [Compound 25, 1-(3-fluorophenoxy)-2,4-dinitrobenzene] | No Binding |
|  | O=[N+]([O-])c1ccc(Oc2ccc(F)c(F)c2F)c([N+](=O)[O-])c1 [Compound 26, 1-(2,4-dinitrophenoxy)-2,3,4-trifluorobenzene] | No Binding |
|  | O=[N+]([O-])c1ccc(Oc2c(F)c(F)cc(F)c2F)c([N+](=O)[O-])c1 [Compound 27, 3-(2,4-dinitrophenoxy)-1,2,4,5-tetrafluorobenzene] | No Binding |
|  | O=[N+]([O-])c1ccc(Oc2ccc(Cl)cc2Cl)c([N+](=O)[O-])c1 [Compound 28, 2,4-dichloro-1-(2,4-dinitrophenoxy)benzene] | No Binding |
|  | O=[N+]([O-])c1ccc(Oc2ccc(C(F)(F)F)cc2)c([N+](=O)[O-])c1 [Compound 29, 2,4-dinitro 1-(4-(trifluoromethyl)phenoxy)-benzene] | No Binding |
|  | Cc1ccc(Oc2ccc([N+](=O)[O-])cc2[N+](=O)[O-])c(C)c1 [Compound 30, 1-(2,4-dimethylphenoxy)-2,4-dinitrobenzene] | No Binding |
|  | O=Cc1ccc(Oc2ccc([N+](=O)[O-])cc2[N+](=O)[O-])cc1 [Compound 31, 4-(2,4-dinitrophenoxy)benzaldehyde] | No Binding |
|  | O=C(O)c1ccc(Oc2ccc([N+](=O)[O-])cc2[N+](=O)[O-])cc1 [Compound 32, 4-(2,4-dinitrophenoxy)benzoic acid] | No Binding |
| abolished binding | O=C(Oc1ccc(F)cc1F)c1ccc([N+](=O)[O-])cc1 [Compound 46, 2,4-difluorophenyl 4-nitrobenzoate] |  |
|  | O=[N+]([O-])c1cc([N+](=O)[O-])c(Oc2ccc(F)cc2F)cc1Oc1ccc(F)cc1F [Compound 48, 4,4’-((4,6-dinitro-1,3-phenylene)bis(oxy))bis(1,3-difluorobenzene)] | No Binding |

| Structure (SMILES) | binding to Hsp27c by HSQC NMR (in words) | HSQC Affinity |
| --- | --- | --- |
| O=[N+]([O-])c1ccc(Sc2ccc(F)cc2F)c([N+](=O)[O-])c1 [Compound 43, (2,4-difluorophenyl)(2,4-dinitrophenyl)sulfane] | removed activity | No Binding |
| O=[N+]([O-])c1ccc(Nc2ccc(F)cc2F)c([N+](=O)[O-])c1 [Compound 44, N-(2,4-difluorophenyl)-2,4-dinitroaniline] | removed activity | No Binding |
| O=C(Oc1ccc([N+](=O)[O-])cc1[N+](=O)[O-])c1ccc(F)cc1F [Compound 47, 2,4-dinitrophenyl 2,4-difluorobenzoate] | abolished binding | No Binding |

Same assay, conditions: from HSQC affinity

| Ligand Efficiency | Structure (SMILES) |
| --- | --- |
| 0.29 kcal/mol/non-H atom | O=[N+]([O-])c1cccnc1Oc1ccc(F)cc1F [Compound 5, 2-(2,4-difluorophenoxy)-3-nitropyridine] |

Same assay, conditions: result in words; screened at 250 μM, significant CSP >8 Hz

| HSQC Affinity | Structure (SMILES) |
| --- | --- |
| No Binding | O=[N+]([O-])c1cccnc1Oc1ccc(I)cc1 [Compound 24, 2-(4-iodophenoxy)-3-nitropyridine] |
| No Binding | O=C(Oc1ccc(F)cc1F)c1ccc([N+](=O)[O-])cc1 [Compound 46, 2,4-difluorophenyl 4-nitrobenzoate] |
| No Binding | O=[N+]([O-])c1cc(Oc2ccc(F)cc2F)ccc1Oc1ccc(F)cc1F [Compound 51] |
